Amino acid sequences for entries named in this document (tags omitted).
UniProt P29371, whole entry: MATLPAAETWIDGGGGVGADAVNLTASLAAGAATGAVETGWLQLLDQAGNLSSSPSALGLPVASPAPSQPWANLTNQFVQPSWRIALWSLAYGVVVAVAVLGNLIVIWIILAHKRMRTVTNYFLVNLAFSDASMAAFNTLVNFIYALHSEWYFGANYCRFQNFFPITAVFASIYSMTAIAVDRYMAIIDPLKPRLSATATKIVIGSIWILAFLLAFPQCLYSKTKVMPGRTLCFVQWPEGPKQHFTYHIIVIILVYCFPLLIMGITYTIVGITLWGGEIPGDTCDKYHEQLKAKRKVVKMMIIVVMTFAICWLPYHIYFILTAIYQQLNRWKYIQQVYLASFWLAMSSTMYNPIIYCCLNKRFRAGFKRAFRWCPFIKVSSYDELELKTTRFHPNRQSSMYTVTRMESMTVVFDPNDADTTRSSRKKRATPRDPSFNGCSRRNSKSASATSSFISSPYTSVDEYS

In ChEMBL document CHEMBL1128788, “The development of a novel series of non-peptide tachykinin NK3 receptor selective antagonists” (Bioorg Med Chem Lett, 1995):

Molecular target: Neuromedin-K receptor (Homo sapiens, UniProt P29371)
Assay: Compound was tested for binding affinity against human Tachykinin receptor 3 in CHO cells
Assay type: cell-based

IC50: 0.21 nM
SMILES: CC(=O)N(C)C1(c2ccccc2)CCN(CCC[C@]2(c3ccc(Cl)c(Cl)c3)CCCN(C(=O)c3ccccc3)C2)CC1 [OSANETANT]
